Experimental data from patent publication US20240139211A1, “METHODS AND COMPOSITIONS FOR TREATING AMYOTROPHIC LATERAL SCLEROSIS” (Amylyx Pharmaceuticals, Inc., priority 2022, published 2024).

How the values were obtained:
CYP2B6 = conditions: Donor 3
CYP2B6 mRNA = assay: CYP2B6 gene expression induction in hepatocyte cultures; conditions: Donor 2

ursodeoxycholic acid
Maximum fold induction of CYP2B6 activity (CYP2B6): 2.75 fold | Maximum fold induction of CYP2B6 gene expression (CYP2B6 mRNA): 12.0 fold
